Experimental data reported in patent publication US20260144862A1, “MATERIALS AND METHODS TO TREAT EPSTEIN-BARR VIRUS (EBV) AND EBV-INDUCED DISEASES” (Medizinische Universität Wien, priority 2022, published 2026).

Biological target: T1, HLA-E (Homo sapiens, UniProt P13747)
T1 construct: expressed in transfected cells; host or cells: mouse lymphoma cell line RMA-S/HLA-E/LFA-3, a gift from Chiara Romagnani, DRFZ Berlin
Assay: HLA-E stabilization by UL40 peptides on HLA-E-expressing RMA-S cells
Assay type: cell-based
Details: HLA-E-expressing RMA-S cells incubated with UL40 peptide
Source text: Functionally, the expansion of NKG2C^+ NK cells in response to HCMV infections depends on a highly polymorphic HCMV UL40-encoded peptide in the respective infecting HCMV variant, which upregulates the NKG2C ligand HLA-E on the surface of HCMV-infected cells^52. […] HCMV variants were obtained from all 145 HCMV-seropositive MS patients during an episode of HCMV reactivation between EBV seroconversion and MS diagnosis, as well as from all HCMV seropositive EBNA^high (N=80) and EBNA^low (N=85) controls in any of the serum samples collected from the individuals over time. […] Therefore, we incubated HLA-E-expressing RMA-S cells with each of the 18 UL40 peptides and measured HLA-E expression on the cell surface.

## VMAPRTLVL [HCMV UL40 peptide variant]
  HLA-E Upregulation: 99.6%
